Measured values: patent US4179514A, “Ketoalkanesulfenyl and ketoalkanethiosulfenyl carbamates” (priority 1978, dated 1979)

Test system: rat
Assay: peroral toxicity to mammals (rat)
Format: in vivo
Details: dose required to achieve mortality rate of 50 percent
Description: Certain of these compositions were also evaluated to determine their peroral toxicity to mammals. The animal selected for this experiment was the rat. The test results obtained are expressed in terms of the number of milligrams of compositions per kilogram of weight of the animal required to achieve a mortality rate of 50 percent (LD50).

1-(2-Cyanoethylthio)acetaldehyde 0-[N-methyl-N-(2,4-dimethyl-3-oxo-2-pentanethiosulfenyl)carbamoyl]oxime
A.O. RAT LD50: 20 mg/kg
